Test: Inhibition of HDAC3 at 50 uM

inhibition: 40%
Structure (SMILES): CN(Cc1ccc2nccnc2c1)C(=O)c1ccc(C(=O)C(F)(F)F)s1

From ChEMBL document CHEMBL1150306, “2-Trifluoroacetylthiophenes, a novel series of potent and selective class II histone deacetylase inhibitors” (Bioorg Med Chem Lett, 2008)
